From patent publication US11519913B2, “Metabolic disorder target” (University of Pittsburgh—Of the Commonwealth System of …, priority 2016, dated 2022)

System: complex IV of the mitochondrial electron transport chain

Difference between 5 and 20 μM treatments, three proteins found at 5, 20 and 100 μM (5 μM vs 20 μM metformin): no significant differences
SMILES: CN(C)C(=N)NC(=N)N [metformin, N,N-Dimethylimidodicarbonimidic diamide]
Fold changes of the 9 complex IV members found, against all other proteins (20 and 100 μM metformin): lower negative fold changes than all other proteins
